One molecule from patent publication US20030162220A1 (HARUO SUGIYAMA, published 2003) can be followed below.

Experiment [1] has as its target T1, WTIP 1-406, polypeptide containing the WW domain at the N-terminal end of WTIP with a histidine tag at the … (human, UniProt O75400 1-406).
T1 construct: Expressed in E. coli; whole-cell lysate run on SDS-PAGE and blotted; not shown: C-terminal his tag and XhoI junction residues from pET-21b(+)
T1 sequence: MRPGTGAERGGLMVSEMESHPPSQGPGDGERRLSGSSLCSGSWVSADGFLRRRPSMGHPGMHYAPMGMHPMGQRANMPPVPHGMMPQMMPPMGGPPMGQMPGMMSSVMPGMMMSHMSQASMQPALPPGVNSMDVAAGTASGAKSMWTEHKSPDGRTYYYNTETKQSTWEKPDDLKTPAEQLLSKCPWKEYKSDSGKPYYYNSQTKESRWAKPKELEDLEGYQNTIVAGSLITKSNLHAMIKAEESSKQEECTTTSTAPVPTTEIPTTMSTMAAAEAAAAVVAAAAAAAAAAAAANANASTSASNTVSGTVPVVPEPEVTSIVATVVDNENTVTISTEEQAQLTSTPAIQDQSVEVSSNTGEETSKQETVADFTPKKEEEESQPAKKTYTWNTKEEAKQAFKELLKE
Put plainly: west western blot of his-tagged WTIP fragments (E. coli lysate) probed with GST.

The target of experiment [2] is T2, human WT1 interacting protein (WTIP) (human, UniProt O75400).
T2 construct: also called p115; about 115 kDa protein
Put plainly: west western blot of K562 cell extract on PVDF, detected with anti-GST antibody. The procedure: In order to investigate the presence of the WT1 interacting protein that can be detected with the GST fusion protein in the K562 cells, K562 (5×10⁶) was dissolved in 500 μl of the sample buffer for SDS-PAGE, and the west western blot was carried out.
After separating the sample protein on SDS-PAGE, it was transferred to a PVDF membrane (Immobilon-P, Millipore) by the semi-dry method, blocked with TBST (0.05% Tween 20) containing 2% skim milk, and was reacted with 10-20 μg/ml TBS for 1 hour to overnight.
After washing the PVDF membrane with TBST, it was reacted for 1 hour with a 1000-fold dilution of anti-GST antibody (Santa Cruz) in TBST, washed again in TBST, and then reacted for 1 hour with a 8000-fold dilution of anti-mouse IgG antibody (alkaline phosphatase (ALP)-conjugated, or horseradish peroxidase (HRP)-conjugated) in TBST. After washing in TBST and TBS, it was subjected to color development with a NBT/BCIP solution for the ALP-conjugated antibody, and was subjected to light emission with ECL for the HRP-conjugated antibody.

B1: GST (glutathione S-transferase) alone (other, UniProt P08515 1-218, looked up)
chain: MSPILGYWKIKGLVQPTRLLLEYLEEKYEEHLYERDEGDKWRNKKFELGLEFPNLPYYIDGDVKLTQSMAIIRYIADKHNMLGGCPKERAEISMLEGAVLDIRYGVSRIAYSKDFETLKVDFLSKLPEMLKMFEDRLCHKTYLNGDHVTHPDFMLYDALDVVLYMDPMCLDAFPKLVCFKKRIEAIPQIDKYLKSSKYIAWPLQGWQATFGGGDHPPK
notes: Control probe in the west western blots
On to B1, for which the binding result in experiment [1] and in experiment [2] was “no binding” throughout.
